# Measurements from US20050119253A1, “Method of treating mental disorders using of D4 and 5-HT2A antagonists, inverse agonists or partial agonists” (priority 2003, published 2005).
# Sequences of proteins named here, by UniProt entry; tags and fusion partners are left off. Residues count along the entry.
# UniProt P28566, whole entry, species assumed: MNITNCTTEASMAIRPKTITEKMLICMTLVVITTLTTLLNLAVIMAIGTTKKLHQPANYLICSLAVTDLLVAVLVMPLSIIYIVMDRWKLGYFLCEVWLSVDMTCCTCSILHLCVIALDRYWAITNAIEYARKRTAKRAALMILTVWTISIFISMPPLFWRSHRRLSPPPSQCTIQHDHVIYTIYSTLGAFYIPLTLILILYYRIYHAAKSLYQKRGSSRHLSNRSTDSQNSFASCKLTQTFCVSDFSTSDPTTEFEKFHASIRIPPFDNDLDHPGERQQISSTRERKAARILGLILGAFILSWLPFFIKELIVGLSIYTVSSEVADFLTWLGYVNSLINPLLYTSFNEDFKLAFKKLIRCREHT
# UniProt P14416, whole entry: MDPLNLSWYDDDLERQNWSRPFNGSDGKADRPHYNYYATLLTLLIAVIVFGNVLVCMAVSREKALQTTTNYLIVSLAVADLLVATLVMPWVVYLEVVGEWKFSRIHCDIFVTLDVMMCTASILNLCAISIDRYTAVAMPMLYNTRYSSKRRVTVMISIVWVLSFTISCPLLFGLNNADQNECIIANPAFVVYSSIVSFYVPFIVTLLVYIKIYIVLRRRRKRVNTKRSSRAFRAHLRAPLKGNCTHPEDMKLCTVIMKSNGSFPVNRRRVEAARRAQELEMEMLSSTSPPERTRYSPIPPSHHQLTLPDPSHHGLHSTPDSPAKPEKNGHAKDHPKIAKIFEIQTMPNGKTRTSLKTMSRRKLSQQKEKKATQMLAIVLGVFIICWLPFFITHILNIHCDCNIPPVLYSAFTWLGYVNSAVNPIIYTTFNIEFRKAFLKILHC
# UniProt P28221, whole entry, species assumed: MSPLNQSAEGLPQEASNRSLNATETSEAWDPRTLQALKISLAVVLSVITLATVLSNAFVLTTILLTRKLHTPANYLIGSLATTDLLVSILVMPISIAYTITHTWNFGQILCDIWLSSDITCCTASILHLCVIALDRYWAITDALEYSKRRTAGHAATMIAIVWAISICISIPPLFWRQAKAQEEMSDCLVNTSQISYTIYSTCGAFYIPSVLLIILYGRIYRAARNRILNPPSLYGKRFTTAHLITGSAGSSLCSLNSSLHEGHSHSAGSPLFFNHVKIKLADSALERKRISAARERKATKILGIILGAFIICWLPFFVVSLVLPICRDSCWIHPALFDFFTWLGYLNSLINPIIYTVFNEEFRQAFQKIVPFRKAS
# UniProt P21728, whole entry: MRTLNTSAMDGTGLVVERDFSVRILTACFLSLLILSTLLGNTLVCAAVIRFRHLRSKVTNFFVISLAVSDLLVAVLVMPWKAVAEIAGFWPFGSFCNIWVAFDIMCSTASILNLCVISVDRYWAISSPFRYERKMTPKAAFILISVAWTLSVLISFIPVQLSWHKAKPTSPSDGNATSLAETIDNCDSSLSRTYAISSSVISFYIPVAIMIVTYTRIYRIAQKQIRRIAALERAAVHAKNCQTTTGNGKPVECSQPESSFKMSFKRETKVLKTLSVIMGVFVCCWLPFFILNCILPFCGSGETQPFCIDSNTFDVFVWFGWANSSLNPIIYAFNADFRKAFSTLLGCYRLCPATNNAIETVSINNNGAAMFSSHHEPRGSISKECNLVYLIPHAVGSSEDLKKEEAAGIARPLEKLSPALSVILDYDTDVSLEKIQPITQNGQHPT
# UniProt P08913, whole entry: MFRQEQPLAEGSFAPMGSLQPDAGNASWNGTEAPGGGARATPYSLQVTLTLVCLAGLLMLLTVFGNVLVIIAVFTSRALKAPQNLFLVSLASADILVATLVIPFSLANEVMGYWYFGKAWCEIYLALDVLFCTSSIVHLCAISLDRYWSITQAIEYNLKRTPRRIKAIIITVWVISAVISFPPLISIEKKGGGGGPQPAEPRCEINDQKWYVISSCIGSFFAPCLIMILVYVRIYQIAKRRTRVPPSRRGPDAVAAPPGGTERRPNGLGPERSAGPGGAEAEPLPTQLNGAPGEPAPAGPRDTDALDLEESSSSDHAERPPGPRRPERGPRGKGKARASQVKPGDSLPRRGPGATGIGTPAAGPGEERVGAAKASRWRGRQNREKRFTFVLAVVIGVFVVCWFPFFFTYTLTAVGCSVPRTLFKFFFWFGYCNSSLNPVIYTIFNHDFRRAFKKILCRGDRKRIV
# UniProt P28222, whole entry, species assumed: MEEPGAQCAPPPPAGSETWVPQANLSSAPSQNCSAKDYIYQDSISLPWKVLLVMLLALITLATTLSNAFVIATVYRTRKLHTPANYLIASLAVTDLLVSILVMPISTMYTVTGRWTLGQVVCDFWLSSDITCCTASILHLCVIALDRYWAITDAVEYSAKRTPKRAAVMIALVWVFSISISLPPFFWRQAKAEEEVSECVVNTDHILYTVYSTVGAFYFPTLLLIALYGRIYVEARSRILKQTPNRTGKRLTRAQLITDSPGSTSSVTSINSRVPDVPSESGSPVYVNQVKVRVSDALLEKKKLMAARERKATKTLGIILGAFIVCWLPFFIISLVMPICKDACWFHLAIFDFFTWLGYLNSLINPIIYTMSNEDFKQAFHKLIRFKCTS
# UniProt P08908, whole entry, species assumed: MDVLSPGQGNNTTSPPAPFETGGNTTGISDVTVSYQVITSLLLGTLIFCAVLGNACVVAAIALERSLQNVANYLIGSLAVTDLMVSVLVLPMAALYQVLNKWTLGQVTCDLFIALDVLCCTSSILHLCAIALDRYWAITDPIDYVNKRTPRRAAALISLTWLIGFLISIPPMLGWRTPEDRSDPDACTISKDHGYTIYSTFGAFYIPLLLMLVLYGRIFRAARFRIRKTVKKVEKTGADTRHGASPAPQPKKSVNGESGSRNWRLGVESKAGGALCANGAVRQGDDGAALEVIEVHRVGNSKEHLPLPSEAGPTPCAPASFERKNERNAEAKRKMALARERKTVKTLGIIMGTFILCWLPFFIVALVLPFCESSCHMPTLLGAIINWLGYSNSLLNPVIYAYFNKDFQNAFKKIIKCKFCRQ
# UniProt P28335, 33-458, species assumed: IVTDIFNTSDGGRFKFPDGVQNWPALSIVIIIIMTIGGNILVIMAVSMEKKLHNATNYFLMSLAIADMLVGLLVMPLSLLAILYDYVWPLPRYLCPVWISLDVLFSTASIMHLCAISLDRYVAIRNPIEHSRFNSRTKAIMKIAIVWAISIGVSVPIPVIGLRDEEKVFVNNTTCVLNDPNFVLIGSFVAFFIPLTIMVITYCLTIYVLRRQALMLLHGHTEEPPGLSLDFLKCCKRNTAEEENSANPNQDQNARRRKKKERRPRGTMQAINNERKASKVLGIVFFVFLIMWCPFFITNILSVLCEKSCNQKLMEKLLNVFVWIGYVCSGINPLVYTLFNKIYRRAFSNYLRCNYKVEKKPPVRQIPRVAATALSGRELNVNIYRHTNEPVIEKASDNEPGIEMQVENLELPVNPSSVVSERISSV
# UniProt P35367, whole entry: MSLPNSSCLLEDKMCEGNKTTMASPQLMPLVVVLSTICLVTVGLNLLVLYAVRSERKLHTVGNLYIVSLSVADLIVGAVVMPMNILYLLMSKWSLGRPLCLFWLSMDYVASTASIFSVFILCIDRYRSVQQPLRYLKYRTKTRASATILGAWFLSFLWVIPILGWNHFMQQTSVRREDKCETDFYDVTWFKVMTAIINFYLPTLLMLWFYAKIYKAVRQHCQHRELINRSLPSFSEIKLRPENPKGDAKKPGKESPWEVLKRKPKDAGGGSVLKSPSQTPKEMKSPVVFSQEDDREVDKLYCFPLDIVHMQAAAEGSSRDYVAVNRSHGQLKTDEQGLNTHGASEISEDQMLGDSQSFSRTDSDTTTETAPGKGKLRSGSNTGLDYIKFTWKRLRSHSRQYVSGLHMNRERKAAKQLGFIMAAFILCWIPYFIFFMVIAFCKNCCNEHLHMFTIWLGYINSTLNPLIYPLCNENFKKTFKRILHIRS
# UniProt P18825, whole entry: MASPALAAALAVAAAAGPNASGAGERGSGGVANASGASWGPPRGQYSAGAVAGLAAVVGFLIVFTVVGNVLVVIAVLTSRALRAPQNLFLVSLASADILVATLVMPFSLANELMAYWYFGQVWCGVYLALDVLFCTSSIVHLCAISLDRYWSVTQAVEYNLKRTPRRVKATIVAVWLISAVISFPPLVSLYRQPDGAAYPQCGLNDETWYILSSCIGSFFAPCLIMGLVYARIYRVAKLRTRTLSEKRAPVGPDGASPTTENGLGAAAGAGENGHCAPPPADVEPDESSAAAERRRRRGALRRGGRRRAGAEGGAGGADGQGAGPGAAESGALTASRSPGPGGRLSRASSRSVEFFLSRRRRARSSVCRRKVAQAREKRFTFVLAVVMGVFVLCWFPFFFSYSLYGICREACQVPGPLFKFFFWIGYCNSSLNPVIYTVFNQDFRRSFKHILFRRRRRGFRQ
# UniProt P07550, whole entry: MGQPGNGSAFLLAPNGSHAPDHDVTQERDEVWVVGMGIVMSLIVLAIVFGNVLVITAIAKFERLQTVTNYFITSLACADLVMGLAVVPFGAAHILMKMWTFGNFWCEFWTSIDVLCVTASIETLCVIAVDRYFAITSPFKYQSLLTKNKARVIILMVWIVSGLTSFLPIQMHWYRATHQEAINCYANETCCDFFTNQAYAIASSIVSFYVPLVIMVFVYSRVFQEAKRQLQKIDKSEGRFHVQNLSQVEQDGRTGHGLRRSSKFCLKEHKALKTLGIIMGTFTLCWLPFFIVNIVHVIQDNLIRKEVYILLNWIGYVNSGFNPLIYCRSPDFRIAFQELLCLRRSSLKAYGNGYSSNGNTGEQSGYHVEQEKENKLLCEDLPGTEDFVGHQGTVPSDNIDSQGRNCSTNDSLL
# UniProt P18089, whole entry: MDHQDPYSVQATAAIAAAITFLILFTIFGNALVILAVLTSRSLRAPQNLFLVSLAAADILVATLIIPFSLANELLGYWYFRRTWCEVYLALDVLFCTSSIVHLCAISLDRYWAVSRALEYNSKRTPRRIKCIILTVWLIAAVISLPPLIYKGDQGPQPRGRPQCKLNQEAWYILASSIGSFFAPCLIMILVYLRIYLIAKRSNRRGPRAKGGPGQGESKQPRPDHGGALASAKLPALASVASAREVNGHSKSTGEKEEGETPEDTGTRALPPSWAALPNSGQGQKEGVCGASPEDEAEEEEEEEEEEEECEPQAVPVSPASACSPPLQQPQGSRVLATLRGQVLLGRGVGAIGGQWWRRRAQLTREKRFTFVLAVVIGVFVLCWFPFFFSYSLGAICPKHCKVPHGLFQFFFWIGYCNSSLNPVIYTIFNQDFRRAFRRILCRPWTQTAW
# Read-outs that look alike come from different tables or passages of the source.
# Columns and labels:
# 5HT1E = 5HT1E (Homo sapiens, UniProt P28566); experiment: pKi of test compounds, 5HT1E receptor; assay type: binding
# D2 = D2 (Homo sapiens, UniProt P14416); experiment: pKi of test compounds, D2 receptor
# 5HT1D = 5HT1D (Homo sapiens, UniProt P28221); experiment: pKi of test compounds, 5HT1D receptor; assay type: binding
# 5HT1F = target: T1, 5HT1F (Homo sapiens, UniProt P30939); experiment: pKi of test compounds, 5HT1F receptor; assay type: binding
# T1 sequence (P30939 1-366): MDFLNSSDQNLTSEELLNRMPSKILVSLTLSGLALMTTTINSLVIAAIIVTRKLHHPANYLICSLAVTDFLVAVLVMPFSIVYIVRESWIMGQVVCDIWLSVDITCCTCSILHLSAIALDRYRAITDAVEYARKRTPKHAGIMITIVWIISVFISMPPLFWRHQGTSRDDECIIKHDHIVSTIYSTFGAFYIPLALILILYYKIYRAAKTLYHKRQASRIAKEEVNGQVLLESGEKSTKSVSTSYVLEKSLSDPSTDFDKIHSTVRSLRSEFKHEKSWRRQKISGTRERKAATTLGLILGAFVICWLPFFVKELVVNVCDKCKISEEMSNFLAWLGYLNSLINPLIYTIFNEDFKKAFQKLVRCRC
# D1 = D1 (Homo sapiens, UniProt P21728); experiment: pKi of test compounds, D1 receptor; assay type: binding
# Alpha2A = Alpha2A (Homo sapiens, UniProt P08913); experiment: pKi of test compounds, adrenergic receptor Alpha2A; assay type: binding
# 5HT1B = 5HT1B (Homo sapiens, UniProt P28222); experiment: pKi of test compounds, 5HT1B receptor; assay type: binding
# 5HT1A = 5HT1A (Homo sapiens, UniProt P08908); experiment: pKi of test compounds, 5HT1A receptor; assay type: binding
# 5HT2C = 5HT2C (Homo sapiens, UniProt P28335); experiment: pKi of test compounds, 5HT2C receptor; assay type: binding
# Alpha1A = target: T2, Alpha1A (Homo sapiens, UniProt P35348); experiment: pKi of test compounds, adrenergic receptor Alpha1A; assay type: binding
# T2 sequence (P35348 1-466): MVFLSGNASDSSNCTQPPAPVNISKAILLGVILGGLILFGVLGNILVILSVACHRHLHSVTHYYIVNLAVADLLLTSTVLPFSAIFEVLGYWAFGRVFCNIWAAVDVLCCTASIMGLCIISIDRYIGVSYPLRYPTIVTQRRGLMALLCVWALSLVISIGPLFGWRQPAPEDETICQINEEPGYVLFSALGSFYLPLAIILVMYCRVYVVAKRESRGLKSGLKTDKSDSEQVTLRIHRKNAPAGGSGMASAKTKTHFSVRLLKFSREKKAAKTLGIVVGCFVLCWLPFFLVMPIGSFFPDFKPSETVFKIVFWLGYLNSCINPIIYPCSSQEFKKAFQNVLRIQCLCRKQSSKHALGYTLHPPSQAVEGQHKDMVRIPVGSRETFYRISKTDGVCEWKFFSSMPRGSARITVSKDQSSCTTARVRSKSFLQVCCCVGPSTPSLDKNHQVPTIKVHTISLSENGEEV
# H1 = H1 (Homo sapiens, UniProt P35367); experiment: pKi of test compounds, histamine receptor H1
# Alpha2C = Alpha2C (Homo sapiens, UniProt P18825); experiment: pKi of test compounds, adrenergic receptor Alpha2C; assay type: binding
# Beta2 = Beta2 (Homo sapiens, UniProt P07550); experiment: pKi of test compounds, adrenergic receptor Beta2; assay type: binding
# Alpha2B = Alpha2B (Homo sapiens, UniProt P18089); experiment: pKi of test compounds, adrenergic receptor Alpha2B
smiles,measurement,setting,value
O=C(CCCN1CCC(O)(c2ccc(Cl)cc2)CC1)c1ccc(F)cc1 [Haloperidol],Ki,5HT1E,> 1 µM
CCN1CCC[C@H]1CNC(=O)c1c(O)c(Cl)cc(Cl)c1OC [Raciopride],Ki,D2,0.001 to 0.01 µM
OCCOCCN1CCN(C2=Nc3ccccc3Sc3ccccc32)CC1 [Seroquel],Ki,5HT1D,> 1 µM
same,Ki,5HT1F,> 1 µM
O=C1CC2(CCCC2)CC(=O)N1CCCCN1CCN(c2nsc3ccccc23)CC1 [Tiospirone],Ki,D1,0.01 to 0.1 µM
O=C1Cc2cc(CCN3CCN(c4nsc5ccccc45)CC3)c(Cl)cc2N1 [Ziprasidone],Ki,Alpha2A,0.1 to 1 µM
COC(=O)[C@@H]1[C@H]2C[C@H]3c4[nH]c5ccccc5c4CCN3C[C@@H]2CC[C@@H]1O [Yohimbine],Ki,5HT1B,0.1 to 1 µM
same,Ki,5HT1A,0.01 to 0.1 µM
same,Ki,5HT2C,> 1 µM
Cc1nc2n(c(=O)c1CCN1CCC(c3noc4cc(F)ccc34)CC1)CCCC2 [Risperidone],Ki,5HT1E,> 1 µM
same,Ki,5HT1F,> 1 µM
Cc1cc2c(s1)Nc1ccccc1N=C2N1CCN(C)CC1 [Olanzapine],Ki,Alpha1A,0.01 to 0.1 µM
CN(C)CCOC1=Cc2ccccc2Sc2ccc(Cl)cc21 [Zotepine],Ki,H1,< 0.001 µM
same,Ki,Alpha2C,0.1 to 1 µM
same,Ki,Alpha2A,0.1 to 1 µM
Fc1cccc2c1O[C@H]1CNC[C@@H]1O2 [Fluparoxan],Ki,5HT1B; read-out: pKi 5HT1B (converted),> 1 µM
same,Ki,5HT1D,> 1 µM
O=C1NCCN1CCN1CCC(c2cn(-c3ccc(F)cc3)c3ccc(Cl)cc23)CC1 [Sertindole],Ki,Beta2,> 1 µM
same,Ki,Alpha2B,0.1 to 1 µM
same,Ki,Alpha2A,0.1 to 1 µM
